Assay results reported in PubChem BioAssay AID2380 (Sanford-Burnham Center for Chemical Genomics, 2010).
The entries are a selection whose mix differs from that of the whole data set. Calls of active or inactive are those of the source.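 The calls were made as follows: active = compounds whose signal lies at least 3.5 SD above the mean of all wells on their plate; inactive = the rest.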

Assay: small molecules increasing insulinoma cell replication – ATP luminescence, uHTS, primary screen (AID 2380);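 also: 0% = DMSO-treated cells in low-serum medium and 100% = 10% serum control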
Details: MIN6 cells proliferation, ATPlite luminescence, 48 h; at 10 µM; active compounds read high; 100% = growth in 10% serum; cells starved in 0.2% serum

| Structure (SMILES) | proliferation |
| --- | --- |
| CC(C)c1ccc(NC2CCN(C(=O)OC(C)(C)C)CC2)cc1 | inactive: -2.16% |
| CN(C)c1cccc(C(=O)NCC2(N3CCCCC3)CCCCC2)c1 | inactive: -1.91% |
| COc1ccc(CN(CCCl)CCCl)cc1Cl | inactive: -3.6% |
| O=C(NCC1(N2CCOCC2)CCCCC1)c1cc(F)c(F)cc1Cl | inactive: 1.3% |
| COc1cc(OC)c(C(=O)NCC2(N(C)C)CCCCC2)cc1OC | inactive: -4.21% |
| CN1CCC(Nc2cccc(F)c2)CC1 | inactive: 1.42% |
| O=C(NCC1(N2CCCCC2)CCCCC1)c1cncc(Br)c1 | inactive: -4.01% |
| O=C(NCC1(N2CCCCC2)CCCCC1)c1ccc(OC(F)F)cc1 | inactive: -0.67% |
| N#CC1(Nc2ccccc2)CCN(CCc2ccccc2)CC1 | inactive: -3.51% |
| CCN1CCC(Nc2ccc(Cl)cc2)CC1 | inactive: -0.05% |
| CSc1ccc(C(=O)NCC2(N3CCOCC3)CCCCC2)cc1 | inactive: -1.96% |
| O=C(NCC1(N2CCCCC2)CCCCC1)c1cccc([N+](=O)[O-])c1 | inactive: -0.41% |
| O=C(NCC1(N2CCCCC2)CCCCC1)c1cccc(C(F)(F)F)c1 | inactive: 6.76% |
| COc1cc(C(=O)NCC2(N3CCCCC3)CCCCC2)ccc1OC(F)F | inactive: 2.26% |
| O=C(NCC1(N2CCOCC2)CCCCC1)c1cc(=O)[nH]c2ccccc12 | inactive: 1.46% |
| CN1CCN(CCOC(=O)C(O)(c2ccccc2)c2ccccc2)CC1 | inactive: 0% |
| CC(C)c1ccc(C(=O)NCC2(N3CCOCC3)CCCCC2)cc1 | inactive: -6.68% |
| COc1ccc(NC2CCN(C(=O)OC(C)(C)C)CC2)cc1 | inactive: -1.97% |
| CCOc1ccc(C)cc1CN(CCCl)CCCl | inactive: 0.42% |
| COc1ccc(NC2CCN(CCc3ccccc3)CC2)c(OC)c1 | inactive: -1.63% |
| CCOC(=O)N1CCC(Nc2ccc(F)cc2)CC1 | inactive: -1.72% |
| CCCCOc1ccc(C(=O)NCC2(N3CCOCC3)CCCCC2)cc1 | inactive: -3.22% |
| O=C(NCC1(N2CCCCC2)CCCCC1)c1ccc(F)cc1 | inactive: 0% |

| Structure (SMILES) | proliferation |
| --- | --- |
| Cc1ccc(OCC(C)C)c(CN(CCCl)CCCl)c1 | inactive: -2.15% |
| CCOC(=O)N1CCC(Nc2cccc(C)c2)CC1 | inactive: 1.18% |
| CC(C)(C)OC(=O)N1CCC(N(C(=O)c2ccccc2)c2ccc(F)cc2)CC1 | inactive: 2.68% |
| COc1ccc(C(=O)NCC2(N3CCCCC3)CCCCC2)c(OC)c1OC | inactive: -2.74% |
| COc1ccc(C(=O)NCC2(N3CCCCC3)CCCCC2)cc1 | inactive: 0% |
| O=C(NCC1(N2CCCCC2)CCCCC1)c1cccs1 | inactive: 5.38% |
| O=C(NCC1(N2CCCCC2)CCCCC1)c1ccc(=O)[nH]c1 | inactive: -1.74% |
| CSc1ccccc1C(=O)NCC1(N2CCCCC2)CCCCC1 | inactive: 0% |
| Cc1cc(C)cc(N(C(=O)c2ccccc2)C2CCN(C(=O)OC(C)(C)C)CC2)c1 | inactive: -4.04% |
| O=C(NCC1(N2CCCCC2)CCCCC1)c1ccc(Cl)nc1 | inactive: 0.27% |
| O=C(NCC1(N2CCOCC2)CCCCC1)c1cc2ccccc2o1 | inactive: -0.54% |
| COc1ccc(Cl)cc1C(=O)NCC1(N2CCOCC2)CCCCC1 | inactive: 1.69% |
| N#CC1(Nc2ccccc2)CCN(Cc2ccccc2)CC1 | inactive: 0.82% |
| O=C(NCC1(N2CCCCC2)CCCCC1)c1ccc(Cl)s1 | inactive: -1.81% |
| O=C(OC1CN2CCC1CC2)C1c2ccccc2Oc2ccccc21 (configuration not stated) | inactive: -2.61% |
| CCOC(=O)N1CCC(Nc2ccc(OC)cc2)CC1 | inactive: 0.25% |
| CN1CCC(Nc2ccc(F)c(Cl)c2)CC1 | inactive: -1.8% |
| CCOc1ncccc1C(=O)NCC1(N2CCOCC2)CCCCC1 | inactive: 2.1% |
| O=C(O)C1(Nc2ccccc2)CCN(Cc2ccccc2)CC1 | inactive: -1.68% |
| CC(C)(C)OC(=O)N1CCC(Nc2ccccc2)CC1 | inactive: -0.86% |
| CCCOc1ccc(C(=O)NCC2(N(C)C)CCCCC2)cc1 | inactive: 0.05% |
| COc1cc(OC)cc(C(=O)NCC2(N3CCOCC3)CCCCC2)c1 | inactive: 0.95% |
| COc1cccc(C(=O)N(c2cc(C)cc(C)c2)C2CCN(C(=O)OC(C)(C)C)CC2)c1 | inactive: -1.71% |

| Structure (SMILES) | proliferation |
| --- | --- |
| CCC(CO)(C(=O)OC1CN2CCC1CC2)c1ccccc1 (configuration not stated) | inactive: 1.09% |
| CN1CCC(Nc2ccc(Cl)cc2)CC1 | inactive: 4.97% |
| CCCOc1ccc(C)cc1CN(CCCl)CCCl | inactive: -3.62% |
| COc1cc(OC)cc(C(=O)NCC2(N3CCCCC3)CCCCC2)c1 | inactive: -3.24% |
| Fc1ccccc1NC1CCN(Cc2ccccc2)CC1 | inactive: -0.48% |
| Cc1ccc(C(=O)NCC2(N3CCCCC3)CCCCC2)o1 | inactive: 2.68% |
| CCN1CCC(Nc2cccc(F)c2)CC1 | inactive: -3.76% |
| CN(C)c1ccc(C(=O)NCC2(N3CCCCC3)CCCCC2)cc1 | inactive: -0.71% |
| O=C(NCC1(N2CCCCC2)CCCCC1)c1ccco1 | inactive: 2.6% |
| N#Cc1ccc(C(=O)NCC2(N3CCCCC3)CCCCC2)cc1 | inactive: -1.73% |
| CC(C)(C)OC(=O)N1CCC(N(C(=O)c2ccccc2)c2ccc(Cl)cc2)CC1 | inactive: -3.86% |
| CN(C)C1(CNC(=O)c2cccc(C#N)c2)CCCCC1 | inactive: -3.72% |
| CCCN1CCC(Nc2cc(OC)cc(OC)c2)CC1 | inactive: -3.76% |
| c1ccc(CN2CCC(Nc3ccccc3)CC2)cc1 | inactive: 0.15% |
| COc1cc(C(=O)NCC2(N3CCOCC3)CCCCC2)cc(OC)c1C | inactive: 3.07% |
| O=C(NCC1(N2CCOCC2)CCCCC1)c1cc(Br)ccc1Cl | inactive: 6.27% |
| COc1ccc(C(=O)NCC2(N3CCOCC3)CCCCC2)cc1OC | inactive: 1.6% |
| CCOC(=O)N1CCC(Nc2ccc(C)cc2)CC1 | inactive: -3.52% |
| N/C(=N\O)c1c(N)no[n+]1[O-] | inactive: -2.32% |
| CCc1cc(C(=O)NCC2(N3CCCCC3)CCCCC2)sc1C | inactive: -3.94% |
| O=C(OC1CN2CCC1CC2)C1c2ccccc2C=Cc2ccccc21 (configuration not stated) | inactive: -3.77% |
